Drawing on ChEMBL document CHEMBL5360630, “Macrocyclic Peptidomimetic Plasmepsin X Inhibitors with Potent In Vitro and In Vivo Antimalarial Activity” (J Med Chem, 2023), this text covers inhibition for three compounds.

The chains behind the UniProt entries cited, without tags or fusion partners. Where a name states a change or a piece, a line headed by the entry shows the natural chain unless it says otherwise.
UniProt Q8IAS0: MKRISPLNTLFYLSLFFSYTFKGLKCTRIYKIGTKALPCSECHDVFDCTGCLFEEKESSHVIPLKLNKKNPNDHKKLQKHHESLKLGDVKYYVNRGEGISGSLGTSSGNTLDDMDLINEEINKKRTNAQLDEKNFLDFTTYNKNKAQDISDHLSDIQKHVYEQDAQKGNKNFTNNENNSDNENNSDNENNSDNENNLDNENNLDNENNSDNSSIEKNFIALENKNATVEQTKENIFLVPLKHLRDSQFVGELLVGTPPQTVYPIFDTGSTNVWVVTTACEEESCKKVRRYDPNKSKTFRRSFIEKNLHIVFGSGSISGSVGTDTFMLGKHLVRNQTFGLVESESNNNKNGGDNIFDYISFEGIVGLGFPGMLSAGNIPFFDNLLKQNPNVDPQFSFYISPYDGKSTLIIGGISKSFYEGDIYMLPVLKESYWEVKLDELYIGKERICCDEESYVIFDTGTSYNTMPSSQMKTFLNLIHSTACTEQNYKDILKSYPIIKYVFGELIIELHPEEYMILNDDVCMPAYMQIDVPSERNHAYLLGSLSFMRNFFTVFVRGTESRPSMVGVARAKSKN

Assay [1] has as its target Plasmepsin X (Plasmodium falciparum (isolate 3D7)) (UniProt Q8IAS0). The note with it: dose 20.0 nM.
The target is the same in assay [2]. The conditions noted are these: dose 20.0 nM. This is another data set of the same source.

SMILES strings stand for the structures. Activity calls are given as the source filed them. No cut-off for these calls is given here.

In the case of `CCCN1CCCCc2cccc(c2)C[C@@H]([C@H](O)CNC(C)(C)c2cccc(OC)c2)NC(=O)c2cccc(c2)C1=O`, in assay [1], the inhibition result is “inactive”.
Turning to `CCCN1CCCCOc2cccc(c2)C[C@@H]([C@H](O)CNC(C)(C)c2cccc(OC)c2)NC(=O)c2cccc(c2)C1=O`, in assay [1], the inhibition result was “inactive”.
On to `CCCN1CCCCCc2cccc(c2)C[C@@H]([C@H](O)CNC(C)(C)c2cccc(OC)c2)NC(=O)c2cccc(c2)C1=O`, for which the inhibition result in assay [2] and in assay [1] was “Active” throughout.
